# Results taken from PMC12102759.
# B1: MBOAT1 peptide 15-30 (Lysophospholipid acyltransferase 1), 16-mer library wild type / USP7 MATH (USP7 MATH domain, residues 53-206) (parent)
# chain 1: TGSTYLHPLSELLGIP
# chain 2: NTAEEDMEDDTSWRSEATFQFTVERFSRLSESVLSPPCFVRNLPWKIMVMPRFYPDRPHQKSVGFFLQCNAESDSTSWSCHAQAVLKIINYRDDEKSFSRRISHLFFHKENDWGFSNFMAWSEVTDPEKGFIDDDKVTFEVFVQADAPHGVAWD
# B2: CAPRIN1 peptide 364-379 (Caprin-1), 16-mer library wild type / G3BP1 NFT2 (G3BP1 NTF2 domain, residues 1-139) (parent)
# chain 1: AQMQGPYNFIQDSMLD
# chain 2: MVMEKPSPLLVGREFVRQYYTLLNQAPDMLHRFYGKNSSYVHGGLDSNGKPADAVYGQKEIHRKVMSQNFTNCHTKIRHVDAHATLNDGVVVQVMGLLSNNNQALRRFMQTFVLAPEGSVANKFYVHNDIFRYQDEVFG
# Variants of: B1
# Assay: proteomic peptide phage display deep mutational scan (ProP-PD DMS): M13 P8 16-mer library selected against immobilised GST-tagged bait for four days (rounds), NGS of the eluted pools per day and pseudo-replica
# Conditions: with USP7 MATH (USP7 MATH domain, residues 53-206); bait immobilised on MaxiSorp plates (10 µg), library pre-cleared on GST, 2 h binding at 4 °C, five washes; one round per day, days 1-4; value from days 2 and 3; keep out of graded; scale: average fractional NGS count over selection days 2 and 3
row,Variant,screen value
1,chain 1 S10P,0
2,chain 1 S10V,0
3,chain 1 S10E,0
4,chain 1 S10Q,0
5,chain 1 S10K,0
6,chain 1 S3V,1.23e-05
7,chain 1 S3R,0
8,chain 1 S3W,0.000137
9,chain 1 S3Y,0

# Results, then the variant that gave them:
row,screen value,Variant
1,0,chain 1 Y5Q
2,0,chain 1 Y5P
3,0,chain 1 Y5A
4,7.37e-05,chain 1 Y5D
5,6.69e-06,chain 1 Y5V
6,0.00149,chain 1 Y5W
7,0,chain 1 Y5G
8,0,chain 1 Y5M
9,0,chain 1 Y5N
10,0,chain 1 Y5S
11,0,chain 1 T4G
12,0,chain 1 T4Q
13,0.000102,chain 1 T4M
14,9.4e-06,chain 1 T4F
15,0,chain 1 T4Y
16,0.000154,chain 1 T4E
17,0,chain 1 T4R
18,0,chain 1 T4N
19,8.6e-06,chain 1 T4S

# Variants of: B2
# Assay: as above
# Conditions: with G3BP1 NFT2 (G3BP1 NTF2 domain, residues 1-139); bait immobilised on MaxiSorp plates (10 µg), library pre-cleared on GST, 2 h binding at 4 °C, five washes; one round per day, days 1-4; value from days 2 and 3; keep out of graded; scale: average fractional NGS count over selection days 2 and 3
row,Variant,screen value
1,chain 1 Q4T,4.85e-05
2,chain 1 F9P,0
3,chain 1 F9M,0
4,chain 1 F9A,0
5,chain 1 F9I,0
6,chain 1 F9T,0
7,chain 1 F9N,0
8,chain 1 S13P,0
9,chain 1 S13Q,0
10,chain 1 S13H,0
11,chain 1 S13M,0
12,chain 1 S13Y,1.86e-05
13,chain 1 S13K,0
14,chain 1 S13V,3.73e-05
15,chain 1 S13I,2.87e-05
16,chain 1 S13E,0
17,chain 1 S13F,4.39e-05
18,chain 1 L15D,2.23e-05
19,chain 1 L15T,0
20,chain 1 L15N,0
21,chain 1 L15E,2.23e-05
22,chain 1 L15Q,0

row,Variant,screen value
1,chain 1 L15A,2.87e-05
2,chain 1 L15P,5.63e-05
3,chain 1 L15G,0
4,chain 1 I10R,0.000113
5,chain 1 I10E,4.02e-05
6,chain 1 I10A,8.85e-05
7,chain 1 I10N,4.39e-05
8,chain 1 I10S,7.25e-05
9,chain 1 I10P,0
10,chain 1 M14G,3.45e-05
11,chain 1 M14P,0
12,chain 1 M14K,3.76e-05
13,chain 1 Q11A,5.63e-05
14,chain 1 Q11I,0
15,chain 1 Q11Y,3.52e-05
16,chain 1 Q11D,0
17,chain 1 Q11E,0
18,chain 1 G5R,2.06e-05
19,chain 1 G5E,8.26e-05
20,chain 1 A1K,4.57e-05
21,chain 1 D12W,0
22,chain 1 D12I,2.06e-05

# Now from value to variant:
row,screen value,Variant
1,0,chain 1 Y7A
2,0,chain 1 Y7G
3,8.09e-05,chain 1 Y7Q
4,0,chain 1 Y7K
5,7.42e-05,chain 1 Y7M
6,0,chain 1 Y7T
